The text below walks through data of patent US20220411487A1 (Regeneron, published 2022).

Chains of the proteins cited; added tags and fusions are not shown. Lines headed by an entry give the natural chain unless they say otherwise; changes in a name come on top. A line that says so, or that is headed by a name, gives the form on record, which may keep a tag or linker.
UniProt Q8IU80, other isoform, or with tags, fused parts or gaps limits assumed: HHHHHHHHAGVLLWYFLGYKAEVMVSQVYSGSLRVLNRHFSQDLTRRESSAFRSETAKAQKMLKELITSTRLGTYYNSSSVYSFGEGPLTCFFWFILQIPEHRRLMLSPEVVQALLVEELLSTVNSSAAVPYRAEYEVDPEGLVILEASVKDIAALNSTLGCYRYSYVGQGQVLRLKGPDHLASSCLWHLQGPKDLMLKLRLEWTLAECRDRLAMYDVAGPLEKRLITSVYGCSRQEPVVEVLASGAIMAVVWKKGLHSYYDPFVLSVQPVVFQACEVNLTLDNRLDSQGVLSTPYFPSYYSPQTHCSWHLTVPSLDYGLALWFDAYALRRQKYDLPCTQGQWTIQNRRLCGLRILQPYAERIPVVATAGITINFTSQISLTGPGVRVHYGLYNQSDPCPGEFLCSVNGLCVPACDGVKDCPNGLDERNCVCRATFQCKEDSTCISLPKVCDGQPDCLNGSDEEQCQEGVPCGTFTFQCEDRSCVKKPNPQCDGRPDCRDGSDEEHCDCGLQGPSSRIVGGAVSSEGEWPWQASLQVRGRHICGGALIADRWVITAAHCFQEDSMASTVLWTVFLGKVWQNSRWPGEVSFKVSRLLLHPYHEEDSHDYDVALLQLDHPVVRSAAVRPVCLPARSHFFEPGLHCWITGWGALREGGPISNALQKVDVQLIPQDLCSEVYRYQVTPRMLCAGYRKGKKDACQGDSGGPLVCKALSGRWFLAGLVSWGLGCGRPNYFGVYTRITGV

Common to all, as to assay: cell-based or functional assay
Experiment [1] has as its target extracellular domain of Human TMPRSS6 with N-terminal 8xHistidine, CHO conditioned media (human, UniProt Q8IU80).
Experiment [2] has as its target T1, extracellular domain of cynomolgous monkey TMPRSS6 (V673M) with N-terminal 8xHistidine, CHO conditioned media (cynomolgous monkey, UniProt Q8IU80 77-811 (human entry)).
T1 chain: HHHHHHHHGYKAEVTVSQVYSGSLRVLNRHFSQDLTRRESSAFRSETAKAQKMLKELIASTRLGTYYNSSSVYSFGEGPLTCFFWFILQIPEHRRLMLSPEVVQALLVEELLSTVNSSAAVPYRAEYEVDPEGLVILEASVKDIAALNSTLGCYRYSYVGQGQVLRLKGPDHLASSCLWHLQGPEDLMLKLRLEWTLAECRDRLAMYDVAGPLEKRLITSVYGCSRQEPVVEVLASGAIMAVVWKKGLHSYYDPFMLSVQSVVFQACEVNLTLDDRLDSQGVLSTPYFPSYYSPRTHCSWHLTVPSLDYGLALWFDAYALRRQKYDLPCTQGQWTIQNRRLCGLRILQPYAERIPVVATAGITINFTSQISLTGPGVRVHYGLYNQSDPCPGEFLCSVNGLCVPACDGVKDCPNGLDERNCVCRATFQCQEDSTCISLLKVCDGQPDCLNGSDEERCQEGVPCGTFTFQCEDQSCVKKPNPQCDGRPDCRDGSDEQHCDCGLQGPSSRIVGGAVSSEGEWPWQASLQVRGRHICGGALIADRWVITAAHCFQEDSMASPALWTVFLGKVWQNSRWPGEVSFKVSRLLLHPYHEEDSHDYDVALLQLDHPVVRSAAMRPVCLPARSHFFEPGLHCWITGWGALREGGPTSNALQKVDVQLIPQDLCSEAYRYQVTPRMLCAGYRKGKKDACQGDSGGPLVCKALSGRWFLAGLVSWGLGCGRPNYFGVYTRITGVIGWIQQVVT

For experiment [3], the target named is T2, full length human TMPRSS6 on HEK293 cells (HEK293/hTMPRSS6) (human, UniProt Q8IU80 10-811).
T2 sequence (looked up): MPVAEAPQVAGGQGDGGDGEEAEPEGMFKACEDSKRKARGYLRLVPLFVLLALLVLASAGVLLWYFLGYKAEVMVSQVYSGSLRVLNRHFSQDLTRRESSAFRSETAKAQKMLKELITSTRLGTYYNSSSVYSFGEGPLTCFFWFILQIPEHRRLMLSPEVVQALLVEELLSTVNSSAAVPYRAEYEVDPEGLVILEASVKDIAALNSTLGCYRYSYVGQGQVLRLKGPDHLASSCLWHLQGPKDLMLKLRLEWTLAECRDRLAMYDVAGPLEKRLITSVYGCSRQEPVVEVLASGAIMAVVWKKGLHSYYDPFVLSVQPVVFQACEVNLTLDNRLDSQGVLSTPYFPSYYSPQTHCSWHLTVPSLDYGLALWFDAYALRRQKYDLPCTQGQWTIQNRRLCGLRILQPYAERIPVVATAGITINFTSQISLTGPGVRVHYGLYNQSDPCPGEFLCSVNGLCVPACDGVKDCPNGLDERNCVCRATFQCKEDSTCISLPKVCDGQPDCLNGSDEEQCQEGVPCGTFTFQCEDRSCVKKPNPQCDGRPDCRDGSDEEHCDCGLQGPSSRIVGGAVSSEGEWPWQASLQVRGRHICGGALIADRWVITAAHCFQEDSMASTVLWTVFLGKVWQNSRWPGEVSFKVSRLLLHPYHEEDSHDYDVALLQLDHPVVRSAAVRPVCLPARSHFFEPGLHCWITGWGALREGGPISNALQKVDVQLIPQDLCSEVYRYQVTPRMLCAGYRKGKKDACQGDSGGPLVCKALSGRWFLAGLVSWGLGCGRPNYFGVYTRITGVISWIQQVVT

Where only a bound is given, the exact number is not on record here.

B1: REGN7973 (antibody, human IgG4 S228P, kappa, V domains shown)
VH: EVQLVESGGGLVKPGGSLRLSCAASGFTFSNAWMSWVRQAPGKGLEWVGRIKSKTDSGTTDYAAPVKGRFTISRDDSKNTLYLQMNSLKTEDTAVYYCTTVDNDFWSGYYNWFDPWGQGTLVTVSS
VL: [gap - about 100 residues]
notes: fully human; human IgG4 Fc with hinge S108P; also called mAb37777
Take B1: in experiment [1], the “% inhibition of enzymatic activity, CM bioassay” value was found to be 93% and the “IC50, CM bioassay” value was determined as 26 nM. Moreover, in experiment [2], the “% inhibition of enzymatic activity, CM bioassay” value is 81% and the “IC50, CM bioassay” value is above 50 nM. In experiment [3], the “% inhibition, HEK293 bioassay, 30 min pre-incubation 25 C” value is 89% and the “IC50, HEK293 bioassay, 30 min pre-incubation 25 C” value stood at 5.8 nM.
